# Binding of CDR-mutated scFvs to a peptide of the spike HR2 region

Values reported by Engelhart et al. 2022, doi:10.1038/s41597-022-01779-4 (FLAb copy).

Target: peptide PDVDLGDISGINAS, taken from heptad repeat 2 (HR2) of SARS-CoV-2 spike.

Each scFv is VH, three GGGGS repeats, VL, as in the parent Ab-14, and differs from it in the CDRs of the heavy chain only.
VH: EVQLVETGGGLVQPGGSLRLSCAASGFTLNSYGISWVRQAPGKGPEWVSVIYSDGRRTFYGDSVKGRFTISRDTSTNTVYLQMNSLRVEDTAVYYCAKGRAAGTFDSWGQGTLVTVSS
VL: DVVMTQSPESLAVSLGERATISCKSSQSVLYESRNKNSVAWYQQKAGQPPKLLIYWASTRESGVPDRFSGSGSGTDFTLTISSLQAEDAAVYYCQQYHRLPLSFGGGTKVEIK

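The starting antibody came from a phage panning campaign against this peptide. AAYL49 was designed without a model: most single CDR substitutions and a random sample of double and triple ones. The assay is AlphaSeq: two haploid yeast populations carry antibody and antigen on their surface. After mating in shaken culture at 30 °C for 16 h, diploids were selected and their barcode pairs sequenced. Scores were corrected for input abundance and mapped to Kd with protein pairs of known affinity run in the same pool. Each pool was mated in three replicate cultures.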

The parent's heavy chain CDRs are GFTLNSYGIS, VIYSDGRRTFYGDSVK, GRAAGTFDS; each variant's own CDRs replace them letter for letter.
Numbers give log10(Kd / nM), so 0 is 1 nM and 3 is 1 µM. Smaller is tighter.
"ND" means that the variant was in the library but no mating with the target was seen in that replicate; the authors take this as a sign of poor binding, and no number exists.

For GFTLNSSGIW / VITSDGRRTFYGDSVK / GRAAGTFDS, the assay gave ND, 4.20, ND (controls 3 of 9).
For GFTWNSYGNS / VIYSDGRRTFYYDSVK / GRAAGTFDS, the assay gave ND, ND, ND (controls 0 of 9).
For GFTLNSYGIS / VISSDGRRCFYGDSVK / GTAAGTFDS, the assay gave 4.12, ND, ND (controls 1 of 9).
For GFTLNSYIIS / VIYSDGRRDFYGDSVK / GRACGTFDS, the assay gave ND, 3.49, ND (controls 4 of 9).
For GFTLNSYGIS / VRYSDGRRTFYGDSVK / GRAAGQFKS, the assay gave ND, ND, ND (controls 0 of 9).
For GFTLNNYGIS / VIYPDGRRTFYGDSVK / GRAAGTFDS, the assay gave 1.22, 1.48, 1.29 (controls 1 of 9).
For GVTLNSYGIS / VAYSDGRVTFYGDSVK / GRAAGTFDS, the assay gave 5.54, 3.65, 5.86 (controls 5 of 9).
For GYTDNSYGIS / VIYSDGRRTFYGDSKK / GRAAGTFDS, the assay gave ND, ND, 3.91 (controls 2 of 9).
For GFTLNSNGIS / VIYSDGRRTFYGDCVK / GRASGTFDS, the assay gave ND, 3.33, ND (controls 3 of 9).
For GFTLNSYGIS / VIYSNGRRDFYGQSVK / GRAAGTFDS, the assay gave ND, ND, ND (controls 2 of 9).
For GFTLNSYGIS / VIYSDGRRTFYGDSVK / GRAAGTNDS, the assay gave 1.54, 1.94, 1.87 (controls 1 of 9).
For GFTLNSYGMS / VIYSDGRRTFEGDSVK / GRAAGTFDS, the assay gave 3.14, ND, ND (controls 1 of 9).
For GFTLNSYGIS / VIHSDGRRTFYRDSVK / GRAAGTRDS, the assay gave ND, ND, ND (controls 0 of 9).
For GSTLNSYGIS / VIYSDGRRTFYGDPVK / GRAAGTFDE, the assay gave 3.52, 2.63, 2.72 (controls 0 of 9).
For GFTLNSYGIS / VIYSDGRRMFYGDSVK / GQAAGTFDF, the assay gave 1.66, 1.49, 1.98 (controls 4 of 9).
For GFTLNSYGIS / GIYSDGRRTFRGDSTK / GRAAGTFDS, the assay gave ND, 4.15, ND (controls 4 of 9).
For GFTLNSYGIS / VIYSDGRRTFYGDSVD / FRAAGTFDS, the assay gave 4.46, ND, 4.49 (controls 3 of 9).
For GFTLNSMGIS / VITSDGRRTFYGTSVK / GRAAGTFDS, the assay gave ND, ND, ND (controls 0 of 9).
For GQTLNSYGIS / VIYSDGRRTFYGDSVK / GHAATTFDS, the assay gave ND, ND, ND (controls 0 of 9).
For GFTLNSYGIS / VIYSAGRRTFYGDSVI / GRAAGTMDS, the assay gave ND, ND, ND (controls 2 of 9).
For YFTLNSEGIS / VIYSDGRRTFYGDSVK / HRAAGTFDS, the assay gave ND, 5.81, ND (controls 5 of 9).
For GFTLNSYGNS / VIYSDGRRTFYGPSVK / GRSAGTFDS, the assay gave ND, 3.75, ND (controls 1 of 9).
For GFADNSYGIS / VIYSDGRRTFYDDSVK / GRAAGTFDS, the assay gave 2.80, 3.62, 2.73 (controls 5 of 9).
For GFTLNSYGIS / VIYSDGRRLFYADRVK / GRAAGTFDS, the assay gave ND, ND, ND (controls 0 of 9).
For GFTLNTYGIS / VIYSIGRRTQYGDSVK / GRAAGTFDS, the assay gave ND, ND, ND (controls 2 of 9).
For GFTLNSYGIS / VIYSDGRRTFHGDSCK / QRAAGTFDS, the assay gave ND, ND, ND (controls 0 of 9).
For GFTLNSYGIK / VIYEDGRRTFYGDSKK / GRAAGTFDS, the assay gave 3.39, ND, ND (controls 1 of 9).
For GFTLNSYGIS / VIYSDGRRTFYGDSTK / GRQAGTFTS, the assay gave 3.86, 3.11, 4.12 (controls 1 of 9).
For GFTLNLYGTS / VIYSDGSRTFYGDSVK / GRAAGTFDS, the assay gave ND, ND, ND (controls 0 of 9).
For GFTLNSYGIS / VIWSPGRRTFYGDSVK / GRAAGTDDS, the assay gave ND, ND, ND (controls 0 of 9).
For GMTLNSYGIS / VIYSDGRRTFYGNRVK / GRAAGTFDS, the assay gave 2.27, 2.03, 2.48 (controls 1 of 9).

A selection of 3 entries from above:

CDR-H1,CDR-H2,CDR-H3,"replicates, log10 nM",control signals
GFTLNLYGTS,VIYSDGSRTFYGDSVK,GRAAGTFDS,"ND, ND, ND",0/9
GFTLNSYGIS,VIYSAGRRTFYGDSVI,GRAAGTMDS,"ND, ND, ND",2/9
GFTLNSYGIS,VISSDGRRCFYGDSVK,GTAAGTFDS,"4.12, ND, ND",1/9

In this assay the parent's reference entry averaged 0.65; its copy inside this library read 4.11 (one replicate of three).
As a blank, each scFv also met three strains without target: over library AAYL49, 15% of these pairings were detected, typically at 4.06 and seldom below 2.83. Also given: how often the same scFv was detected with the empty control strains.